In the library only some 2.1% were active in any assay of this set; here they are far more common.
A549 viability = A549 cytotoxicity, counter-screen for Nrf2 inhibitors; A549 ARE-Fluc cells, CellTiter-Fluor viability, 18-24 h; Potency, µM (doses to about 46 µM), usual class: inhibitors; 0.16% of 390,000 active
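A549 ARE-Fluc cells in 5% FBS OPTI-MEM, 5000 cells/well, rested 2 h then exposed to compounds in concentration-response for 18-24 h at 37 °C. Viability by CellTiter-Fluor fluorescence (Ex 405/Em 525) after 30 min; luciferase luminescence (BugLite, 15 min, RT) read afterwards.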
Nrf2 ARE act = activators of Nrf2 (ARE) signaling; Potency, µM (series often up to 46.1 µM), hits mostly activators; AID 624171; 0.31% of 410,000 active; AREc32 ARE-luciferase reporter (MCF7-derived line), luminescence, 24 h; also: nearly all actives have a fitted effect of over 65% in size
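Nrf2 activation is followed as ARE-luciferase induction in the AREc32 line after one day of compound treatment; luminescence is read with Steady-Glo.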
GRP78 ERSR act = inducers of ER stress response in human glioma cells; U87-MG GRP78 promoter luciferase reporter, 16 h; Potency, µM, most hits filed as activators; 0.02% of 420,000 active; also: series mostly up to about 76 µM; nearly all actives have a fitted effect of over 35% in size
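Stably transfected U87-MG glioma cells carrying a GRP78-based luciferase sensor; 16 h compound incubation. Luminescence end-point read 10 min after Bright-Glo addition at room temperature.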
TSG101-PTAP inh = blocks PTAP/TSG101 interaction to inhibit HIV-1 budding; Potency, µM (top dose mostly 115 µM), usual class: inhibitors; 340,000 tested, under 10 active; AID 493005; Fluorescence polarization, FITC-PTAP peptide / Tsg101 binding; active = well fitted inhibition curve with a large enough effect in the main read-out, with a control signal flat, not every such curve was filed as active; inconclusive = small, poorly fitted or top-dose-only effect, or effect the other way, or a change in a side signal; inactive = no such curve, though single readings can be large or run the other way
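Steps: Tsg101 binding domain dispensed (10 uM final), compounds pinned in DMSO, FITC-labeled PTAP-motif peptide added (50 nM final); after 20 min binding at room temperature, polarization measured.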
Nrf2 block = inhibitors of Nrf2 signaling; A549 ARE-Fluc reporter, luciferase luminescence, 18-24 h; Potency, µM (series often up to 46 µM), actives largely listed as inhibitors; 2.1% of 360,000 active; also: nearly all actives have a fitted effect of over 60% in size
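Concentration-response testing used A549 ARE_Fluc cells at 5000 cells/well. Following an 18-24 h compound incubation, viability was read by fluorescence (Ex 405/Em 525) and luciferase output by luminescence.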
miR-21 reporter = miR-21 reporter, rising signal; HeLa miR-21 FLuc reporter, luciferase, 48 h; Potency, µM (doses to about 38.3 µM); 340,000 tested, under 10 active; AID 2288; active = well fitted rising curve with a large enough effect; inconclusive = small, poorly fitted or top-dose-only effect; inactive = no such curve, though single readings can be large or run the other way;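 further: miR-21 action dims this reporter so a rising signal means less miR-21 action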
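Using DMEM plus 10% FBS, HeLa miR-21-FLuc cells are incubated with test compounds (final up to about 40uM) for 48 hours; firefly luciferase signal is then imaged following reagent-mediated lysis.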
A number is an active result; n = inactive; u = inconclusive; x = not tested or not shown. Unless noted, calls follow the shape of the dose curve; as a rule, active = well fitted curve in the direction sought with a large enough effect; inconclusive = small, poorly fitted or top-dose-only effect, or another doubt; inactive = no such curve, though single readings can be large; an effect the other way counts as inactive or inconclusive.

SMILES	A549 viability	Nrf2 ARE act	GRP78 ERSR act	TSG101-PTAP inh	Nrf2 block	miR-21 reporter
CCCN(c1ccccc1CC)S(=O)(=O)c1ccc2c(c1)CC(C)N2C(=O)C1CC1 (configuration not stated)	n	n	x	x	20.6µM	u
CCCCN(c1ccccc1)S(=O)(=O)c1ccc2c(c1)CC(C)N2C(=O)C1CC1 (configuration not stated)	n	n	n	x	u	u
C/C(=N\O)c1ccc(OCC(=O)N2CCCCC2)cc1	x	x	n	x	x	x
O=C(C[n+]1csc2ccccc21)c1ccc(I)cc1	x	x	n	x	x	x
Cc1c2c(c(O)c3c(O)cccc13)C(=O)O[C@H]2C1C(N(C)C)C(O)=C(C(N)=O)C(=O)[C@H]1O (some centres not stated)	x	x	n	x	x	x
Cc1cccnc1-c1cccc2c1OC(CNC(=O)C1CCCc3c1[nH]c1ccccc31)C2 (configuration not stated)	x	x	n	x	x	x
COc1ccc(C2=Nn3c(nnc3-c3cccc(OC)c3)SC2)cc1	u	x	x	x	n	x
CCC1CN(CCNC(=O)c2ccnc(Cl)c2)Cc2cc(OC)ccc2O1 (configuration not stated)	x	x	n	x	x	x
Cc1ccccc1CC1(CO)CCCN(C(=O)c2ccccc2Cl)C1 (configuration not stated)	n	n	n	n	n	n
Cc1ccccc1CC1(CO)CCCN(C(=O)c2cc(Cl)ccc2F)C1 (configuration not stated)	n	n	n	n	11.6µM	n
c1ccc2sc(-c3cc4c(c(OC5CCOC5)c3)OCCN(Cc3cccn3-c3nccs3)C4)nc2c1 (configuration not stated)	x	x	n	x	x	x
COc1ccc(CC2(CO)CCN(CC3=Cc4cc(Cl)ccc4OC3)CC2)cc1	n	n	n	n	13µM	n
CCOc1cc(/C=C2/C(=O)ON=C2C)ccc1OCc1ccccc1F	u	n	n	n	4.11µM	n
Cc1ncc2c(c1CNC(=O)c1ccc3c(c1)OCO3)CCN(C(=O)c1csc3c1CCCC3)C2	x	x	n	x	x	x
C[C@@H]1CN(Cc2ccc3c(c2)CN(Cc2cccc4c2OCO4)CCO3)C[C@H](C)O1	x	x	n	x	x	x
CCc1c(C)nc2ncnn2c1N1CCC(C(=O)NCc2cccs2)CC1	n	n	n	n	18.4µM	n
CCOc1ccc(NC(=O)C2CCCN(c3c(CC)c(C)nc4ncnn34)C2)cc1 (configuration not stated)	n	n	u	n	10.3µM	n
CCOc1ccc(NC(=O)C2CCCN(c3nn4cc(-c5ccc(OC)cc5)nc4s3)C2)cc1 (configuration not stated)	n	n	n	x	7.31µM	n
CCc1c(C)nc2ncnn2c1N1CCCC(C(=O)NCc2cccs2)C1 (configuration not stated)	n	n	n	n	u	n
CCCCN1C(=O)C(O)(CC(=O)c2ccco2)c2cc(Br)ccc21 (configuration not stated)	n	n	n	n	n	n
CCCCN1C(=O)C(O)(CC(=O)c2ccc(C)cc2C)c2cc(Br)ccc21 (configuration not stated)	u	n	n	x	25.9µM	n
O=C(CC1(O)C(=O)N(CCc2ccccc2)c2ccc(Br)cc21)c1ccc(F)cc1 (configuration not stated)	n	n	n	x	u	u
COc1ccc(C(=O)CC2(O)C(=O)N(CCc3ccccc3)c3ccc(Br)cc32)cc1OC (configuration not stated)	u	n	n	x	23.1µM	n
COc1cc(C(=O)N/N=C(\C)c2ccccn2)cc(OC)c1OC	u	n	n	n	n	n
C/C(=N\NC(=O)c1ccc(Cl)cc1)c1ccccn1	u	u	n	n	3.66µM	n
SMILES	A549 viability	Nrf2 ARE act	GRP78 ERSR act	TSG101-PTAP inh	Nrf2 block	miR-21 reporter
COc1cc(C(=O)N/N=C(\Cc2ncc[nH]2)c2ccccc2)cc(OC)c1OC	u	n	n	n	14.6µM	n
COc1cc(C(=O)N/N=C(\c2ccccc2)c2ccccn2)cc(OC)c1OC	u	n	n	n	4.61µM	n
C[N+]1(CC(=O)c2ccc(Br)cc2)CCOCC1	x	x	n	x	x	x
Cc1cc2c3c([nH]c2cc1S(=O)(=O)N1CCC2(CC1)OCCO2)CC(C)(C)CC3=O	n	n	n	n	23.1µM	n
CCc1cc2c3c([nH]c2cc1S(=O)(=O)N1CCC2(CC1)OCCO2)CCCC3=O	n	n	n	n	u	n
O=C(CN1CCOCC1)Nc1ccccc1Sc1ccc(Cl)cc1	n	n	n	n	29.1µM	n
Cc1cccc(C)c1NC(=O)c1cccc2c1-c1ccccc1C2=O	n	n	n	n	u	n
Cc1cccc(C)c1NC(=O)COC(=O)c1cccc2c1C(=O)c1ccccc1C2=O	n	n	n	n	18.4µM	n
Cc1cccc(NC(=O)COC(=O)c2cccc3c2C(=O)c2ccccc2C3=O)c1C	n	n	n	n	14.6µM	u
COc1cccc(C2(CC(=O)N3CCCOc4c(cccc4OC)C3)CC(=O)N(C)C2=O)c1 (configuration not stated)	x	x	n	x	x	x
CC1CCN(S(=O)(=O)c2ccc(C(=O)N3CCCC(C(F)(F)F)C3)cc2)CC1 (configuration not stated)	n	n	n	n	20.6µM	x
COc1ccccc1NS(=O)(=O)c1ccc(C(=O)N2CCCC(C)C2)cc1 (configuration not stated)	n	n	n	n	n	n
COc1ccccc1NS(=O)(=O)c1ccc(C(=O)N2CCCC(C(F)(F)F)C2)cc1 (configuration not stated)	n	n	n	n	23.1µM	x
CC(=O)Nc1c(O)cc(Br)c2nonc12	n	x	n	x	n	x
CC(=O)Nc1cc(O)c2nonc2c1O	6.51µM	x	n	x	20.6µM	x
O=C(CN1CCN(S(=O)(=O)c2ccccc2F)CC1)Nc1ccccc1C(=O)c1ccccc1	n	n	n	n	14.6µM	n
O=C1CN(CCN2CC(=O)NC(=O)C2)CC(=O)N1	x	x	n	x	x	x
CC(C)CC(=O)NC(=S)Nc1nc(-c2cccc3ccccc23)cs1	u	n	n	n	25.9µM	n
Cc1cnc(SCc2ccccn2)nc1C1CCCN(C(=O)c2scc3c2CCCC3)C1 (configuration not stated)	x	x	n	x	x	x
CC(C)C1Cc2c(sc3[nH]c(=S)n(Cc4ccccc4)c(=O)c23)CO1 (configuration not stated)	u	n	n	n	16.4µM	n
Cc1nnc2n(-c3ccccc3)c(=O)c3c4c(sc3n12)COC(C(C)C)C4 (configuration not stated)	n	n	n	n	n	n
Cc1nc([N+](=O)[O-])cn1-c1ccc([N+](=O)[O-])cc1	x	x	n	x	x	x
